Patent US8691184B2, “Bcl-2/Bcl-xL inhibitors and therapeutic methods using the same” (The Regents of the University of Michigan, priority 2011, dated 2014)

Protein sequences, listed by entry. Tags and fused reporters are not part of them.
UniProt Q07820, whole entry, species assumed: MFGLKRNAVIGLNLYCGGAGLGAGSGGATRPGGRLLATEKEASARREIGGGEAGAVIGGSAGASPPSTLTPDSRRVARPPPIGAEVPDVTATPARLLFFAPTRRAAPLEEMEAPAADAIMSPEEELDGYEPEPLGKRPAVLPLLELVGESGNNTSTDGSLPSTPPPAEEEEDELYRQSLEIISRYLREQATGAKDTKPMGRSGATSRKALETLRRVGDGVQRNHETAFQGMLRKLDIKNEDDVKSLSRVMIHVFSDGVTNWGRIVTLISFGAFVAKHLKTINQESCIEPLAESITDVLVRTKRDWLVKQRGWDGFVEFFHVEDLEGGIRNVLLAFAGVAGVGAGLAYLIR

Biological target: Mcl-1 (Homo sapiens, UniProt Q07820)
Assay: FP-based binding assay, Mcl-1
Conditions: Table 2, FP-based assay; read-out: Mcl-1 IC50 ± SD

IC50: > 1000 nM
Structure (SMILES): CN(C)CC[C@H](CSc1ccccc1)Nc1ccc(S(=O)(=O)NC(=O)c2ccc(N3CCN(Cc4ccccc4-c4ccc(Cl)cc4)CC3)cc2)cc1[N+](=O)[O-] [ABT-737, reference compound]
